{"source": "patent US20200254041A1", "about": "“RAPID ONSET AND EXTENDED ACTION PLANT-BASED AND SYNTHETIC CANNABINOID FORMULATIONS” (RECEPTOR HOLDINGS, INC., priority 2017, published 2020)", "origin": "cited, not measured here", "conditions": "cited from earlier work"}
{"substance": "Catechin", "values": [{"measurement": "water solubility (in words)", "value": "low water solubility"}]}
